Source: ChEMBL document CHEMBL1781999, “Lead optimization of aryl and aralkyl amine-based triazolopyrimidine inhibitors of Plasmodium falciparum dihydroorotate dehydrogenase with antimalarial activity in mice” (J Med Chem, 2011)

Target: T1, Dihydroorotate dehydrogenase (Plasmodium falciparum, UniProt Q54A96)
T1 sequence (Q54A96 whole entry): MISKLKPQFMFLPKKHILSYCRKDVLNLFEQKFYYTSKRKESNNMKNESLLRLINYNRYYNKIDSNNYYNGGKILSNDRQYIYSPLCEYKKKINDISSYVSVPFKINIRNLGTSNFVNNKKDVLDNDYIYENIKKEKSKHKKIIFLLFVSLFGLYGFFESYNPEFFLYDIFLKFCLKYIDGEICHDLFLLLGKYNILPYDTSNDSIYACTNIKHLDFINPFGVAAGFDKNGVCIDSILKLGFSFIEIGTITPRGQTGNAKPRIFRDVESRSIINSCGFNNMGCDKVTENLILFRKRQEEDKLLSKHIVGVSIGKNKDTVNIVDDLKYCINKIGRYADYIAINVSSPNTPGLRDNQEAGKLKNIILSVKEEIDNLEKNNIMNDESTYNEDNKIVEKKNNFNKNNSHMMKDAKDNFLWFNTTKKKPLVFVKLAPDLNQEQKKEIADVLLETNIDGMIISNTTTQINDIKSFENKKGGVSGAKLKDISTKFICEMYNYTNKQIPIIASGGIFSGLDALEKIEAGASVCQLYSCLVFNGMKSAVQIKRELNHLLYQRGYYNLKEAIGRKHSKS
Assay: Inhibition of His6-tagged recombinant Plasmodium falciparum dihydroorotate dehydrogenase expressed in Escherichia coli using L-dihydroorotate as substrate after 5 to 10 mins by DCIP dye-based assay

Compound	IC50
C=Cc1ccc(Nc2cc(C)nc3ncnn23)cc1	800 nM
Cc1cc(Nc2ccc(C(C)(C)C#N)cc2)n2ncnc2n1	1000 nM
